Experimental data: patent US20220087987A1, “A METHOD FOR TREATING SWI/SNF COMPLEX-DEFICIENT CANCERS COMPRISING GLUTATHIONE (GSH) METABOLIC PATHWAY INHIBITOR” (National Cancer Center, priority 2018, published 2022)

Experiment: in vitro
Conditions: human

`COc1ccc(C[C@H]2NC[C@H](O)[C@H]2OC(C)=O)cc1` [anisomycin] gave a viability of 5.36%.
